Laboratory results taken from patent publication US6794489B2, “Compositions and methods for treatment of sexual dysfunction” (Palatin Technologies, Inc., priority 1999, dated 2004).

By UniProt entry, the sequences of proteins in these tests, tags left out. Where a name states a change or a piece, a line headed by the entry shows the natural chain unless it says otherwise.
UniProt Q01727: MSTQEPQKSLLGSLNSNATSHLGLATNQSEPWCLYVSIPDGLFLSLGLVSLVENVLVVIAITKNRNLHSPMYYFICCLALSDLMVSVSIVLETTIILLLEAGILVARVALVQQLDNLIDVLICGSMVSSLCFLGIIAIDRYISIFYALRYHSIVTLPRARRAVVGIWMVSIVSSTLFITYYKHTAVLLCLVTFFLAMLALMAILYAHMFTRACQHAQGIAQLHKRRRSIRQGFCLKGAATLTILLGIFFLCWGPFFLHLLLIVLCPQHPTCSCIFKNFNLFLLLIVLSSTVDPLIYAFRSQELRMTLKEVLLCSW
UniProt Q64326: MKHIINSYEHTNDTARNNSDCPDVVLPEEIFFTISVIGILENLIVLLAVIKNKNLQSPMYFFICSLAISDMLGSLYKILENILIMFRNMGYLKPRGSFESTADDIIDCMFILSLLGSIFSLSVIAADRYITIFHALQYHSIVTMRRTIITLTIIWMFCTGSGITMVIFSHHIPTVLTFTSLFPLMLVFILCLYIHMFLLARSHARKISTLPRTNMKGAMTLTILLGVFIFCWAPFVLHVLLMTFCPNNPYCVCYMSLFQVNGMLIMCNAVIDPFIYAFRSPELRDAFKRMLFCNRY

How the values were obtained:
MC1-R = target: T1, MC1-R (Mus musculus, UniProt Q01727); experiment: Competitive binding assay with 125I-NDP-MSH, MC1 receptors; details: read-out: RELATIVE BINDING (Ki) MC1-R; B16-F1 mouse melanoma cells; 125I-NDP-MSH radioligand
T1 construct: B16-F1 mouse melanoma cells were used as the source of MC1 receptors; endogenous in cells; host or cells: B16-F1 mouse melanoma cells

MC2-R = target: T2, MC2-R (Mus musculus, UniProt Q64326); experiment: Competitive binding assay with 125I-NDP-MSH, MC2 receptors; details: read-out: RELATIVE BINDING (Ki) MC2-R; Y1 cells; 125I-NDP-MSH radioligand
T2 construct: Y1 cells were used as the source of MC2 receptors; endogenous in cells; host or cells: Y1 cells

ferrets = experiment: Ferret emesis study; format: in vivo; details: animals out of six
Source text: Ferrets are a recognized model for emetic studies. The vehicle for both intravenous and intranasal administration was saline. The positive control was cisplatin, known to induce vomiting in ferrets. The data is described as the number of animals out of a group of six showing signs of vomiting.

Sprague Dawley rats [1] = details: stated as known; cited from earlier work
[2] = tested on: men with psychogenic erectile dysfunction; details: subcutaneous, 0.025 to 0.157 mg/kg; cited from earlier work
Sprague Dawley rats [3] = experiment: Induction of penile erection by intravenous injection; details: rat, in vivo

Melanotan-II [reference compound]
Ki (MC1-R): 0.12 nM | Ki (MC2-R): > 1000 nM | Signs of vomiting (proportions) (ferrets; 10 μg/kg IV): 1/6 | Signs of vomiting (proportions) (ferrets; 30 μg/kg IV): 4/6 | Signs of vomiting (proportions) (ferrets; 100 μg/kg IN): 0/6 | Signs of vomiting (proportions) (ferrets; 100 μg/kg IV): 6/6 | Signs of vomiting (proportions) (ferrets; 300 μg/kg IN): 5/6 | Signs of vomiting (proportions) (ferrets; 500 μg/kg IN): 6/6 | Lowest dose inducing side effects (Sprague Dawley rats [1]): 300 μg/kg body weight | Transient side effects [2]: nausea, stretching and yawning, and decreased appetite | Therapeutic window (desired therapeutic effect to observed adverse effects) (Sprague Dawley rats [3]): 3-4 fold
